Measured values as given in paper PMC8016950.

By UniProt entry, the sequences of proteins in these tests, tags left out. Chains listed by the source or under a name are the forms on record and can include a tag or linker.
UniProt P17931, other isoform, or with tags, fused parts or gaps, stated change not applied: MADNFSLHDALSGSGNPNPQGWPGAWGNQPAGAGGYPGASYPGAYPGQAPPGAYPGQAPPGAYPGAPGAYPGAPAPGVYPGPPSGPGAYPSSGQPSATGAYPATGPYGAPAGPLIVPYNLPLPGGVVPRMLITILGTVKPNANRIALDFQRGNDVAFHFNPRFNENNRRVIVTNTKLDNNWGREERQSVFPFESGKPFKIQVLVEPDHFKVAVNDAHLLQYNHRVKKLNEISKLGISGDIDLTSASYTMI

Molecular target: full length human galectin-3 (hGal3), Cys173 mutated to Thr (human) (UniProt P17931)
Experiment: ELISA; recombinant hGal3 immobilized on a microtiter plate; dilution series of Fab; detection with goat anti-human-kappa-light-chain-IgG alkaline phosphatase conjugate

pKd	Substance
5.55	humanized αhGal3-Fab version "3KYM" (CDRs of M3/38 grafted on the framework of a human anti-LINGO-1 mAb)
8.23	humanized αhGal3-Fab version "4KQ3" (CDRs of M3/38 grafted on the framework of a human anti-IL-17A antibody)
8.16	humanized αhGal3-Fab version "5I8C" (CDRs of M3/38 grafted on the framework of the human HIV-1 neutralizing Fab VRC34.01)

pKd: −log10 of the molar value.
